# Assay results published in patent US20240398756A1, “DRUG FOR REDUCING BLOOD GLUCOSE AND/OR TREATING DIABETIC COMPLICATIONS” (SICHUAN UNIVERSITY, priority 2022, published 2024).
# Tested on: C57BL/KsJ db/db mice
# Test: Serum insulin content and insulin resistance index in db/db diabetic mice
# Assay type: in vivo
# Settings: gavage, end of 1 month treatment, nanoparticles 100 mg/kg every 3 days, LA monomer 100 mg/kg and metformin 120 mg/kg daily
# Protocol: 8-week male C57BL/KsJ db/db mice, SPF grade, provided by Jiangsu GemPharmatech Co. Ltd., Changzhou Branch, certificate number: 202012449, with an initial weight of 44±2 g, underwent adaptive feeding for one week. A total of 24 C57BL/KsJ db/db mice were randomly divided into 4 groups according to body weight and blood glucose, with 6 mice in each group. They were db/db model group, db/db+lipoic acid nanoparticle group (100 mg/kg), db/db+lipoic acid monomer group (100 mg/kg) and db/db+metformin group (120 mg/kg). There were 6 littermate w/w male mice of the same week age as the solvent control group. […] After administration of a single dose, the blood glucose changes of mice were continuously monitored for 3 days. During the 1-month treatment cycle, the blood glucose changes of the mice were detected every 3 days. […] The mice were killed by enucleation and bloodletting, serum samples were collected by centrifugation at room temperature, the serum insulin content was detected by mouse insulin ELISA detection kit, and the insulin resistance index was calculated, and the percentage of the drug to reduce the serum insulin content and insulin resistance index was calculated based on the difference between the model and the normal control group. The results of the quantitative experiment were expressed as mean±variance (x±s). […]
structure (smiles),measurement,value
"O=C(O)CCCCC1CCSS1 (stereo not shown) [LA monomer, lipoic acid]",decrease of insulin resistance index,no significant difference
